# Measurements taken from PubChem BioAssay.
# Sequences of proteins named here, by UniProt entry; tags and fusion partners are left off.
# UniProt Q16828, whole entry, looked up: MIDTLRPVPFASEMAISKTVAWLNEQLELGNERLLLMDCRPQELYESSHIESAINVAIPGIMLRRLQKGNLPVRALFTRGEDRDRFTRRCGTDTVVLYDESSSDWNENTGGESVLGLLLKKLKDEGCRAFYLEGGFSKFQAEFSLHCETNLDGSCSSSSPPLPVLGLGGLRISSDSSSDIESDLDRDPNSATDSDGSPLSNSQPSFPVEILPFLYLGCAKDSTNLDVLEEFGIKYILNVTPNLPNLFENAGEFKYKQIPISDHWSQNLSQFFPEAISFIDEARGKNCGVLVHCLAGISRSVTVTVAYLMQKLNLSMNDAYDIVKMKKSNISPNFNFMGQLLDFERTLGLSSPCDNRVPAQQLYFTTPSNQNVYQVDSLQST
# The list shows a part of the results. Calls of active or inactive are those of the source.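 The calls were made as follows: active = compounds giving at least 50% inhibition in the cell-based MKP-3 phosphatase rescue imaging test; inactive = the rest.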
# Molecular target: Dual specificity protein phosphatase 6 (Homo sapiens) (UniProt Q16828)
# Experiment: DUSP6 inhibitors restoring Erk phosphorylation by chemical complementation, primary imaging in DUSP6-transfected HeLa (AID 609);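 also: phospho-Erk level distribution per well compared with pooled transfected vehicle control wells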
# Details: HeLa MKP-3 transfected, phospho-Erk imaging KS statistic; at 10 µM; hits give high values; cells stimulated with TPA for 15 min
structure (smiles),measurement,value
CCN(CC)CC(O)COC(=O)C(O)(c1ccccc1)C1CCCCC1 (stereo unspecified),inhibition,inactive: 1.75%
